The numbers were not newly measured in publication PMC11655904, “[^89Zr]Zr-DFO-TOC: a novel radiopharmaceutical for PET imaging of somatostatin receptor positive neuroendocrine tumors” (EJNMMI Radiopharmacy and Chemistry, 2024), which cites them from elsewhere.

The conditions of this data set: stated in the discussion, no reference given; cited from earlier work. The text has this: Significant progress has been made in recent years towards understanding the underlying biology and molecular pathways involved with NETs, particularly the role of somatostatin receptors (SSTRs) and their downstream pathways. SSTRs (SSTR1, 2 A/2B, 3, 4, and 5) belong to a family of G protein-coupled receptors with seven transmembrane-spanning proteins that bind the cyclic peptide somatostatin (SST) (Theodoropoulou and Stalla [2013]). SST regulates cell growth and inhibits hormone secretion in the endocrine and exocrine systems (Brereton et al. [2015]; Ampofo et al. [2020]).

octreotide: the biological half-life is 90 min.
